Source: patent US20040048790A1
Each block holds one binder with its values, some of them ahead of it.

Key:
Conditions in all cases: remark: other sources report otherwise
HLA-B*3501 (human) = assay: 125I-probe peptide inhibition, purified HLA
HLA-A*3101 (human) = assay: 125I-probe peptide inhibition, purified HLA
HLA-A*6802 (human) [1] = assay: 125I-probe peptide inhibition, purified HLA
HLA-A*6802 (human) [2] = assay: competition vs 125I probe peptide, purified HLA
HLA-B*0702 (human) = assay: 125I-probe peptide inhibition, purified HLA
HLA-B*5301 (human) = assay: 125I-probe peptide inhibition, purified HLA
HLA-A*0202 (human) [3] = assay: 125I-probe peptide inhibition, purified HLA
HLA-A*0206 (human) [4] = assay: 125I-probe peptide inhibition, purified HLA
HLA-A*0202 (human) [5] = assay: competition vs 125I probe peptide, purified HLA
HLA-A*0206 (human) [6] = assay: competition vs 125I probe peptide, purified HLA

Binder: APAPAPSW [p53.84]
- IC50 (HLA-B*3501 (human)): 3270 nM

Binder: APAPAPSI [p53.84.18]
- IC50 (HLA-B*0702 (human)): 275 nM
- IC50 (HLA-B*5301 (human)): 291 nM

Binder: ALPPVAPV [p53.69L2V8]
- IC50 (HLA-A*0202 (human) [3]): 7170 nM
- IC50 (HLA-A*0206 (human) [4]): 285 nM
- IC50 (HLA-A*0202 (human) [5]): 7170 nM
- IC50 (HLA-A*0206 (human) [6]): 285 nM

Binder: FLHSGTAKSV [p53.113]
- IC50 (HLA-A*0206 (human) [4]): 4620 nM
- IC50 (HLA-A*0206 (human) [6]): 4620 nM

Second part, the binder after the results:

- IC50 (HLA-A*3101 (human)): 184 nM
Binder: SVSRHKKLMFR [p53.376.V2R11]

- IC50 (HLA-A*6802 (human) [1]): 8890 nM
- IC50 (HLA-A*6802 (human) [2]): 8890 nM
B1: p53.132B4V9 (peptide)
peptide: KMFBQLAKV
modifications: here or on the partner: B at position 4 = alpha-amino butyric acid (in place of Cys)

- IC50 (HLA-A*3101 (human)): 419 nM
Binder: GVRVRAMAIYK [p53.154.V2]

- IC50 (HLA-A*0202 (human) [3]): 506 nM
Binder: CLLAKTCPV [p53.135L2]
